Assay results reported in patent US11787833B2, “Modified cyclic dinucleoside compounds as sting modulators” (ALIGOS THERAPEUTICS, INC., priority 2019, dated 2023).

The chains behind the UniProt entries cited, without tags or fusion partners.
UniProt Q86WV6, whole entry H232R: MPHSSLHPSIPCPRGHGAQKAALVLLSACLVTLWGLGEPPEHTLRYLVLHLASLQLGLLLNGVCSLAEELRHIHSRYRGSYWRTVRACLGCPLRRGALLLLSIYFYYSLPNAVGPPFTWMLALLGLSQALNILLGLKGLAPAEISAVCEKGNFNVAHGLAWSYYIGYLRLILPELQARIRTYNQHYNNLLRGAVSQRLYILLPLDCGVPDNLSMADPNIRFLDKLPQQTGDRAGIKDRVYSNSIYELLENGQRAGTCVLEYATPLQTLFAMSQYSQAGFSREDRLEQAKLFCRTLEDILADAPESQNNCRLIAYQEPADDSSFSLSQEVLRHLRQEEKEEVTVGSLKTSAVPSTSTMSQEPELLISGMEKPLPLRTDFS

Target: T1, 293T-Dual hSTING-R232 cells (Homo sapiens, UniProt Q86WV6, H232R)
T1 construct: host or cells: 293T-Dual hSTING-R232 cells (HEK 293T)
Experiment: 293T R232 cell reporter assay (HEK 293T reporter assay)
Format: cell-based
Conditions: digitonin 10 μg/mL, 30 min exposure, 20 h incubation
Procedure: 293T-Dual hSTING-R232 cells (Invivogen) were plated in 96 well plates at a density of 5×10^4 cells per well in DMEM supplemented with 10% FBS, 1% Pen-Strep, 1% non-essential amino acids, 1% glutamine, and 1% HEPES. Assay setup took place after allowing cells to adhere for 48 h. Compounds dissolved in water were serially diluted in dosing buffer containing 10 μg/mL digitonin. Media was aspirated from the cells, and 50 μL buffer with compound was added in triplicate. After 30 min at 37° C., buffer was aspirated and replaced with 100 μL media. Cells were incubated for 20 h at 37° C., 5% CO2. IFN-beta expression and activation of the interferon regulatory factor (IRF) were measured based on luciferase and alkaline phosphatase reporter activity, respectively. Cell viability was determined in parallel.

| Compound | EC50 (alkaline phosphatase reporter, read-out: EC50 [μM] IRF reporter) [µM] | EC50 (luciferase reporter, read-out: EC50 [μM] IRN-β reporter) [µM] | EC50 (EC50 [μM] IRF reporter, alkaline phosphatase reporter) [µM] | EC50 (EC50 [μM] IRN-β reporter, luciferase reporter) [µM] |
| --- | --- | --- | --- | --- |
| CO[C@H]1[C@H]2O[P@](=O)(SCC(=O)OC(C)(C)C)OC[C@H]3O[C@@H](n4cnc5c(N)ncnc54)[C@H](F)[C@@H]3O[P@](=O)(SCC(=O)OC(C)(C)C)OC[C@H]1O[C@H]2c1snc2c(=O)[nH]c(N)nc12 [Compound 1-50a] | < 0.25 | 0.25 to 100 | – | – |
| CO[C@H]1[C@H]2O[P@@](=O)(SCC(=O)OC(C)(C)C)OC[C@H]3O[C@@H](n4cnc5c(N)ncnc54)[C@H](F)[C@@H]3O[P@](=O)(SCC(=O)OC(C)(C)C)OC[C@H]1O[C@H]2c1snc2c(=O)[nH]c(N)nc12 [Compound 1-50b] | – | – | < 0.25 | 0.25 to 100 |

Like-named read-outs stand apart in the source and are kept apart here.
